Measured values from patent publication US9029409B2, “Isoxazolines as therapeutic agents” (AbbVie Inc., priority 2011, dated 2015).

Target: recombinant human MMP13 catalytic domain (CD) (Homo sapiens, UniProt P45452)
Test: MMP-13 catalytic domain FRET enzyme assay
Details: read-out: MMP13 (CD) IC50, recombinant human MMP-13 catalytic domain
Method: A recombinant human MMP13 catalytic domain (CD) construct encompassing residues 20-274 (SWISS-PROT P45452) was generated by synthetic gene methods and bacterial expression. MMP-13 activity assays were performed using the recombinant human MMP-13 CD at a 0.4 nM concentration and the fluorogenic substrate (QXL-520)-K-P-L-A˜Nva-Dap(5-FAM)-A-R-NH2 (Anaspec cat #60554-01, San Jose, Calif.) at a 0.25 μM concentration in assay buffer containing […], pH 7.5, 10 mM CaCl2, 150 mM NaCl, 0.05% Brij 35. The assay is based on the cleavage of this substrate by MMP-13, resulting in decrease of FRET between the donor-acceptor pair and subsequent fluorescence enhancement. The assays were carried out in 384-well plates (Greiner cat #781076, Germany) for 60 min at RT. After the incubation period, the reaction was quenched by the addition of 5 μL of 500 mM EDTA (100 mM final concentration) (Rankem, Cat #E0120, India) mixed well and the rate of substrate hydrolysis was determined by monitoring change in fluorescence at excitation and emission wavelengths of 485 nm and 535 nm respectively. Fluorescence was measured on a Victor V5 plate reader (Perkin Elmer, Turku, Finland). […]
MMP13 Catalytic Domain (CD) Potency of the Described Examples Determined Using Time Resolved Fluorescence Resonance Energy Transfer (FRET) Enzyme Assays: […]

`CCCS(=O)(=O)N1CCC(C2CC(c3cc(C(=O)NCc4ccc(F)c(OC)c4)nc(C)n3)=NO2)CC1` (stereo not shown) gave a pIC50 of over 8.00.

pIC50: −log10 of the molar value.
